Measured values reported in ChEMBL document CHEMBL1127838, “Development of a receptor-interaction model for serotonin 5-HT2 receptor antagonists. Predicting selectivity with respect to dopamine D2 receptors” (J Med Chem, 1994).

Amino acid sequences for entries named in this document (tags omitted).
UniProt P61169, whole entry: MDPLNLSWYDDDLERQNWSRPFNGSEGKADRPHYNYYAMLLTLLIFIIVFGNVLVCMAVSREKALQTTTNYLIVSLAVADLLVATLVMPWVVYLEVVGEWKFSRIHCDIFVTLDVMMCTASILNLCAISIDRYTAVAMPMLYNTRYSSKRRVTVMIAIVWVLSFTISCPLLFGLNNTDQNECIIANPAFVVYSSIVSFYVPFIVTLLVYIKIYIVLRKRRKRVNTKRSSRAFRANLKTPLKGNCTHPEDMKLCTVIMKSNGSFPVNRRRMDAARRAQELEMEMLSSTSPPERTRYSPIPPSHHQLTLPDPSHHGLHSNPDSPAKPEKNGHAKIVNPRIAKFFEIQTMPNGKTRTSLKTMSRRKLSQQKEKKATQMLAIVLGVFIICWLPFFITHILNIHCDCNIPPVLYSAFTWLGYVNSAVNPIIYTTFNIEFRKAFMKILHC

Target: D(2) dopamine receptor (Rattus norvegicus, UniProt P61169)
Test: Binding affinity at dopamine D2 receptor by [3H]spiperone displacement.

## O=C1NCCN1CCN1CCN([C@@H]2C[C@@H](c3ccc(F)cc3)c3cc(Cl)ccc32)CC1
  IC50: 360 nM
